Reference: publication PMC12362585, “Development and Preclinical Characterization of [^18F]H3-2406 and [^18F]H3-2407 for Positron Emission Tomography Imaging of the Histamine Subtype‑3 Receptor” (Journal of Medicinal Chemistry, 2025)

Chains of the proteins cited; added tags and fusions are not shown.
UniProt Q99720, whole entry, species assumed: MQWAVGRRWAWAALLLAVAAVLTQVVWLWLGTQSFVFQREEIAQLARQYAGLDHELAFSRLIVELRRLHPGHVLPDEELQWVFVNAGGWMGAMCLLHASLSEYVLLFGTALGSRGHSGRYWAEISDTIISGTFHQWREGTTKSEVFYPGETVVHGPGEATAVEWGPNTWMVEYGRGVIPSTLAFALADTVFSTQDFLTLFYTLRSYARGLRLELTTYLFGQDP

Biological target: sigma-1 receptor (Homo sapiens, UniProt Q99720)
Assay: sigma 1 binding assay
Conditions: ratio of sigma-1 K i to H3R K i

- selectivity of H3R over sigma-1: 0.65 fold
Compound: O=C([C@H]1C[C@@H]1c1ccc(F)cc1)N1CCN(C2CCC2)CC1 [Compound 2, (4-Cyclobutylpiperazin-1-yl)((1S,2S)-2-(4-fluorophenyl)cyclopropyl)methanone]
